Molecules are shown by their SMILES. Only a part of the results on these compounds is given; other tests are left out.

The subject of this series is human hepatic cell line (HepG2 ATCC HB-8065). The series can be described thus: Human cell viability assay (CellTiter-Glo). The note with it: for toxicity against HepG2 human hepatic cell line (in words): HepG2, summary statement in text; for IC50 (μg/mL) HepG2: HepG2 cell viability, 24 h incubation with compound, CellTiter-Glo. On the technique in general: Cellular ATP, detected with luciferase, serves as a proxy for viable cell number.

As for `COc1ccc2ccc(=O)n(CCN3CC[C@@H]4[C@H](C3)OC(=O)N4c3ccc4c(n3)NC(=O)CO4)c2n1` (relative stereo), the “toxicity against HepG2 human hepatic cell line (in words)” value (from here on “toxicity”) is “no detectable toxicity” and the “IC50 (μg/mL) HepG2” value is “A (an IC50 of over 100 is assigned the letter A)”.
In the case of `COc1ncc2ccc(=O)n(CCN3CC[C@@H]4[C@H](C3)OC(=O)N4c3ccc4c(n3)NC(=O)CO4)c2n1` (relative stereo), the “toxicity” value is “no detectable toxicity” and the “IC50 (μg/mL) HepG2” value is given as “A (an IC50 of over 100 is assigned the letter A)”.
Regarding `N#Cc1ccc2ccc(=O)n(CCN3CC[C@@H]4[C@H](C3)OC(=O)N4c3ccc4c(n3)NC(=O)CO4)c2c1` (relative stereo), the “toxicity” value was “acceptable level of hepatic toxicity” and the “IC50 (μg/mL) HepG2” value was “B (an IC50 of from 10 to 100 is assigned the letter B)”.

Values taken from US20190040083A1 (priority 2016, published 2019).
